The values that follow are results of earlier work, collected in patent US7250518B2, “Nicotinamide acids, amides, and their mimetics active as inhibitors of PDE4 isozymes” (Pfizer Inc., priority 2001, dated 2007).

One data set relates to PDE4. The conditions noted are these: read-out: IC50 as PDE4 inhibitor.
The subject of data set [1] is antigen-induced bronchoconstriction. To be noted: guinea pig, in vivo.

The term IC50 denotes the midpoint of a concentration-inhibition curve. On to `COc1ccc(C(=O)Nc2c(Cl)cncc2Cl)c2cccnc12` [Example D4418], for which, in the data set with PDE4, the IC50 is 200 nM. Also, the “Inhibition of antigen-induced bronchoconstriction” value in data set [1] is given as “active”.
